The entries are a selection whose mix differs from that of the whole data set. Some salts and complexes are drawn in separate pieces, as the source files them; their charges need not balance. The source made the active and inactive calls.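 The calls were made as follows: active = inhibition above the mean of compounds falling within the control limits plus 3 SD of them (cut at about 14% in these data); inactive = the rest.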
Molecular target: Fibrinogen beta chain (Homo sapiens) (UniProt P02675)
Assay: small molecules displacing Tn7 from DD(E) complex – biochemical, fluorescence polarization, human fibrin, Tn7 probe, primary screen (AID 720508);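 also: 0% = plate median of compound wells and 100% = 10 µM Aha-Tn7 peptide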
Details: FP displacement of FITC-Tn7 peptide from fibrin DD(E); at 8.3 µM; hits give high values; 0% = median of compound wells per plate

Sequences of proteins named here, by UniProt entry; tags and fusion partners are left off.
UniProt P02675, whole entry, looked up: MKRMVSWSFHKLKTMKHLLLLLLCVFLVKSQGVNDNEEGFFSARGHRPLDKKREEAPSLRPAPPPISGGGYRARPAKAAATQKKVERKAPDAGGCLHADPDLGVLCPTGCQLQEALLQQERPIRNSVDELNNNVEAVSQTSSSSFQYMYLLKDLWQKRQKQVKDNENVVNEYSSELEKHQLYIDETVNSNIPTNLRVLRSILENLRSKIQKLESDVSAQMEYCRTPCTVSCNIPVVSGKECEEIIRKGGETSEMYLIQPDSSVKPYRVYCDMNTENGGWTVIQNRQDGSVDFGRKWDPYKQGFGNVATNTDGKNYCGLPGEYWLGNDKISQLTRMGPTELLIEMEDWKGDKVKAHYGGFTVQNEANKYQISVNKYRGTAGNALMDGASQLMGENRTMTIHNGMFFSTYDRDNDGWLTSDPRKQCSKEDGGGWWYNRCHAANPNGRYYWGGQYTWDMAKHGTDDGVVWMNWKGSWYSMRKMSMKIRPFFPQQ

Structure (SMILES) | inhibition
O=[N+]([O-])c1cc([N+](=O)[O-])c(O)c([N+](=O)[O-])c1.c1ccc(Oc2ccncc2)cc1 | inactive: 1.69%
CCOC(=O)c1ccc(NP(C)(=O)Oc2ccc(OC)cc2)cc1 (centres undefined) | inactive: -6.6%
CCOP(C)(=S)SCC(=O)NC(C)C(=O)O (centres undefined) | inactive: 7.24%
CP(=O)(Nc1ccccn1)Oc1ccc(Cl)cc1 (centres undefined) | inactive: 4.09%
CP(=O)(Oc1ccccc1)OC(c1ccccc1)C(F)(F)F (centres undefined) | inactive: 6.74%
CP(=O)(Nc1ccc(SC(F)(F)F)cc1)Oc1ccc(Cl)cc1 (centres undefined) | inactive: -2.35%
Cc1cccc(C)c1OP(C)(=O)Nc1ccc(SC(F)(F)F)cc1 (centres undefined) | inactive: 10.1%
Cc1cc(C)cc(OP(C)(=O)Nc2ccc(SC(F)(F)F)cc2)c1 (centres undefined) | inactive: 4.26%
CCc1ccc(OP(C)(=O)N2CCN(c3ccc([N+](=O)[O-])cc3)CC2)cc1 (centres undefined) | inactive: -1.05%
CP(=O)(NC(=O)Nc1ccccc1)Oc1ccccc1 (centres undefined) | inactive: -2.6%
CP(=S)(Nn1cnnc1)Oc1ccccc1 (centres undefined) | inactive: -5.75%
CP(=O)(Nc1ccccc1Br)Oc1ccccc1 (centres undefined) | inactive: 3%
COc1ccccc1OP(C)(=O)Nc1ccccc1 (centres undefined) | inactive: 4.35%
Cc1ccc(NP(C)(=O)Oc2ccccc2)c(C)c1 (centres undefined) | inactive: 3.54%
COc1ccccc1OP(C)(=O)Nc1ccc(C)cc1 (centres undefined) | inactive: -0.67%
CCOC(=O)c1ccc(NP(C)(=O)Oc2ccccc2)cc1 (centres undefined) | inactive: 2%
Cc1cc(C)cc(OP(C)(N)=O)c1 (centres undefined) | inactive: 7.48%
COc1ccc(OP(C)(=O)Nc2cccc(F)c2)cc1 (centres undefined) | inactive: -1.1%
COc1ccccc1OP(C)(=O)Nc1cc(Cl)ccc1C (centres undefined) | inactive: -8.61%
O=[N+]([O-])c1cc([N+](=O)[O-])c(Nc2cccnc2)c([N+](=O)[O-])c1 | inactive: -13.4%
O=[N+]([O-])c1ccc2c(c1)C=Nc1ccccc1O2 | inactive: 0.12%
Cc1cccc(C)c1OP(C)(N)=O (centres undefined) | inactive: 1.78%
CC(C)(C)c1ccc(OP(C)(=O)Nc2ccc(SC(F)(F)F)cc2)cc1 (centres undefined) | inactive: 2.75%
COc1ccccc1-c1ccccn1.O=[N+]([O-])c1cc([N+](=O)[O-])c(O)c([N+](=O)[O-])c1 | inactive: 4.17%
CCN(CC)CCCOC(=O)C(O)(c1ccccc1)c1ccccc1 | inactive: -0.88%

Structure (SMILES) | inhibition
Cc1ccc(C)c(NP(C)(=O)Oc2ccccc2)c1 (centres undefined) | inactive: 1.08%
CP(=O)(Nc1cccc(Br)c1)Oc1ccccc1 (centres undefined) | inactive: -1.15%
Cc1cc(C)cc(OP(C)(=O)Nc2ccccn2)c1 (centres undefined) | inactive: 7.03%
COc1ccccc1OP(C)(=O)Nc1cccc(Br)c1 (centres undefined) | inactive: 6.34%
CCOC(=O)c1ccc(NP(C)(=O)Oc2cc(C)cc(C)c2)cc1 (centres undefined) | inactive: -7.48%
Cc1cc(C)cc(OP(C)(=O)Nc2ccc(C)cc2C)c1 (centres undefined) | inactive: -6.27%
CC1=NCCc2c1[nH]c1ccccc21.O=[N+]([O-])c1cc([N+](=O)[O-])c(O)c([N+](=O)[O-])c1 | inactive: -5.63%
O=C(O)c1cccc(Nc2c([N+](=O)[O-])cc([N+](=O)[O-])cc2[N+](=O)[O-])c1 | inactive: -1.3%
CN1CCCCC1COC(=O)C1(O)c2ccccc2CCc2ccccc21 (centres undefined) | inactive: 0.08%
COc1ccccc1OP(C)(=O)Nc1c(C)cccc1C (centres undefined) | inactive: -7.06%
COc1ccc(-c2ccccn2)cc1.O=[N+]([O-])c1cc([N+](=O)[O-])c(O)c([N+](=O)[O-])c1 | inactive: 4.1%
CP(=O)(Nc1ccc(SC(F)(F)F)cc1)Oc1ccccc1 (centres undefined) | inactive: 2.32%
CCCOc1ccc(NP(C)(=O)Oc2ccc(Cl)cc2)cc1 (centres undefined) | inactive: 1.67%
CCOC(=O)C(CC)C1=NC(C)(C)Cc2ccccc21.O=[N+]([O-])c1cc([N+](=O)[O-])c(O)c([N+](=O)[O-])c1 (centres undefined) | inactive: 1.29%
O=[N+]([O-])c1cc([N+](=O)[O-])c(Nc2nnnn2CCO)c([N+](=O)[O-])c1 | inactive: -2.51%
O=[N+]([O-])c1cc([N+](=O)[O-])c(-c2cnn(-c3ccccc3)c2)c([N+](=O)[O-])c1 | inactive: 9.18%
Cc1nc2ccc3ccccc3c2s1.O=[N+]([O-])c1cc([N+](=O)[O-])c(O)c([N+](=O)[O-])c1 | inactive: 4.94%
O=[N+]([O-])c1cc([N+](=O)[O-])c(-n2nnc3ccccc32)c([N+](=O)[O-])c1 | inactive: 8.59%
CN(Cc1cccnc1)C(=O)COc1ccc(Cl)c(Cl)c1.O=[N+]([O-])c1cc([N+](=O)[O-])c(O)c([N+](=O)[O-])c1 | inactive: 3.96%
CP(=O)(Nc1ccc2c(c1)OCCO2)Oc1ccccc1 (centres undefined) | inactive: 5.87%
Cc1ccccc1NP(C)(=O)Nc1ccccc1C | inactive: -1.49%
O=[N+]([O-])c1cc([N+](=O)[O-])c(C(F)(F)F)c([N+](=O)[O-])c1O | inactive: 1.82%
CP(=O)(Nc1ccc(SC(F)(F)F)cc1)Oc1ccc(F)cc1 (centres undefined) | inactive: -2.25%
CCOP(C)(=S)SCC(=O)NC(C)(CC)C(=O)O (centres undefined) | inactive: 1.2%
CCOP(=O)(CC)OCC | inactive: 2.08%

Structure (SMILES) | inhibition
O=[N+]([O-])c1ccc(OP2(=O)COCCO2)cc1 (centres undefined) | inactive: -6.01%
Cc1cc(-c2cccc3ccccc23)c(C)cn1.O=[N+]([O-])c1cc([N+](=O)[O-])c(O)c([N+](=O)[O-])c1 | inactive: -0.68%
O=[N+]([O-])c1cc([N+](=O)[O-])c(NCC2CCS(=O)(=O)C2)c([N+](=O)[O-])c1 (centres undefined) | inactive: 4.36%
Cc1c(C(c2ccc3c(c2)OCO3)c2c(C)n(C)n(-c3ccccc3)c2=O)c(=O)n(-c2ccccc2)n1C.O=[N+]([O-])c1cc([N+](=O)[O-])c(O)c([N+](=O)[O-])c1 | inactive: 5.6%
COc1ccc(OP(C)(=O)Nc2cccc(Br)c2)cc1 (centres undefined) | inactive: -1.19%
CN(C)CCOC(=O)C(O)(c1ccccc1)C1CCCCC1 (centres undefined) | inactive: -1.52%
COc1ccc(NP(C)(=O)Oc2ccccc2OC)cc1 (centres undefined) | inactive: -12.1%
Cc1c([N+](=O)[O-])cc([N+](=O)[O-])c(Br)c1[N+](=O)[O-] | inactive: -5.63%
CCN(CC)CCCOC(=O)C(O)(c1ccccc1)C1CCCCC1 (centres undefined) | inactive: -6.97%
CP(=O)(Nc1ccccc1)Oc1ccc(F)cc1 (centres undefined) | inactive: -4.62%
O=[N+]([O-])c1cc([N+](=O)[O-])c(OC2CCCCC2O)c([N+](=O)[O-])c1 (centres undefined) | inactive: -3.8%
CCCCCOc1ccc(NP(C)(=O)Oc2ccc(Cl)cc2Cl)cc1 (centres undefined) | inactive: -4.86%
CCN(CC)CCCNc1ccccc1[N+](=O)[O-].O=[N+]([O-])c1cc([N+](=O)[O-])c(O)c([N+](=O)[O-])c1 | inactive: -2.74%
CCOC(=O)c1ccc(NP(C)(=O)Oc2ccc(F)cc2)cc1 (centres undefined) | inactive: -1.9%
COc1ccc(OP(C)(=O)Nc2ccc(SC(F)(F)F)cc2)cc1 (centres undefined) | inactive: 0.17%
O=C(OC1CN2CCC1CC2)c1ccc([N+](=O)[O-])cc1 (centres undefined) | inactive: -3.26%
O=C(OCCN1CCN(CCOCc2ccccc2)CC1)C(O)(c1ccccc1)c1ccccc1 | inactive: 4.4%
COc1ccc2c(c1O)-c1c(O)c(OC)cc3c1[C@H](C2)[N+](C)(C)CC3.O=[N+]([O-])c1cc([N+](=O)[O-])c([O-])c([N+](=O)[O-])c1[O-] | inactive: -3.89%
O=[N+]([O-])c1cc([N+](=O)[O-])c(Nc2ccc(Cl)cc2)c([N+](=O)[O-])c1 | inactive: 1.63%
CP(=O)(Nc1ccccc1F)Oc1ccccc1 (centres undefined) | inactive: 0.44%
CC(C)c1ccc(OP(C)(=O)Nc2ccc(SC(F)(F)F)cc2)cc1 (centres undefined) | inactive: 0.85%
O=[N+]([O-])c1cc([N+](=O)[O-])c(Nc2ccccn2)c([N+](=O)[O-])c1 | inactive: -3.75%
Cc1c(NP(C)(=O)Oc2ccc(C(C)C)cc2)c(=O)n(-c2ccccc2)n1C (centres undefined) | inactive: 8.25%
COc1ccccc1OP(C)(=O)Nc1ccc(C)cc1C (centres undefined) | inactive: 0.74%
CP(=O)(Nc1ccccn1)Oc1ccccc1 (centres undefined) | inactive: 5.87%

Structure (SMILES) | inhibition
CCc1ccc(OP(C)(=O)O)cc1 | inactive: -4.76%
COc1ccccc1OP(C)(=O)Nc1ccc(Br)cc1 (centres undefined) | inactive: -2.77%
COc1ccc(OP(C)(=O)Nc2ccccn2)cc1 (centres undefined) | inactive: 2.6%
CN(C)CCOC(=O)C(O)(c1ccccc1)C1CCCC1 (centres undefined) | inactive: -9.74%
CP(=O)(OCCOc1ccccc1)OCCOc1ccccc1 | inactive: 1.09%
CP(=O)(Nc1ccc(Cl)cc1Cl)Oc1ccccc1 (centres undefined) | inactive: 4.27%
CCCCCCCCCCCCCCCC1C[N+](C)(C)CCOP(C)(=O)O1 (centres undefined) | inactive: 0.09%
Cc1cc(C)cc(OP(C)(=O)Nc2cccc(C(F)(F)F)c2)c1 (centres undefined) | inactive: 5.33%
O=C1C(O)=C([N+](=O)[O-])C(=O)C(O)=C1[N+](=O)[O-] | inactive: -2.21%
COc1ccccc1OP(C)(=O)Nc1ccc(C)c(C)c1 (centres undefined) | inactive: -1.31%
COc1ccc(OP(C)(=O)Nc2ccccc2Br)cc1 (centres undefined) | inactive: -0.36%
Nc1ccc2c(ccc3cccnc32)n1.O=[N+]([O-])c1cc([N+](=O)[O-])c(O)c([N+](=O)[O-])c1 | inactive: 6.66%
CCOC(=O)c1ccc(NP(C)(=O)Oc2ccc(Cl)cc2)cc1 (centres undefined) | inactive: 0.42%
CP(=O)(OC12CC3CC(CC(C3)C1)C2)OC12CC3CC(CC(C3)C1)C2 | inactive: 2.51%
CC(C)(C)c1ccc(OP(C)(=O)O)cc1 | inactive: -4.01%
COc1ccccc1OP(C)(=O)Nc1ccccc1Br (centres undefined) | inactive: -3.93%
CP(=O)(Nc1ccc(Cl)cc1)Oc1ccc(F)cc1 (centres undefined) | inactive: 7.48%
CN(C)C(=O)c1c([N+](=O)[O-])cc([N+](=O)[O-])cc1[N+](=O)[O-] | inactive: 4.21%
COc1ccc(OP(C)(=O)Nc2ccc(Br)cc2)cc1 (centres undefined) | inactive: -0.87%
CCN(CC)CC(O)COC(=O)C(O)(c1ccccc1)C1CCCCC1 (centres undefined) | inactive: -1.84%
O=C(OCCCN1CCCC1)C(O)(c1ccccc1)C1CCCCC1 (centres undefined) | inactive: 7.26%
COc1ccccc1OP(C)(=O)Nc1c(C)n(C)n(-c2ccccc2)c1=O (centres undefined) | inactive: 1.32%
CCc1ccc(OP(C)(=O)Nc2cccnc2)cc1 (centres undefined) | inactive: 1.73%
CP(=O)(Oc1ccccc1)N1CCOC1=O (centres undefined) | inactive: 0.9%
